Laboratory results: patent US20140017673A1, “METHOD FOR ENUMERATING EUKARYOTIC CELL MICRONUCLEI WITH AN EMPHASIS ON SIMULTANEOUSLY ACQUIRING CYTOTOXICITY AND MODE OF ACTION INFORMATION” (priority 2012, published 2014)

System: TK6 cells

COc1cc2c(c(OC)c1OC)-c1ccc(OC)c(=O)cc1[C@@H](NC(C)=O)CC2 [Colchicine]
mode of genotoxic action from metaphase events, FIG. 3: aneugenicity | proportion of metaphase events relative to negative control (mitotic index), FIG. 3: increased
